Data on 1 compound can be found in EP4834339A1, “COMPOUND COMPOSITION OF ADAPALENE AND DAPSONE, PREPARATION METHOD THEREFOR, AND USE THEREOF” (dated 2026).

≈ marks a conversion by molar mass, not a printed value.

A short description of the data set: Solubility of adapalene in various media. The note with it: adapalene in purified water, room temperature, 24 hours.

By Solubility is commonly meant how much of the substance goes into solution per volume. Higher therefore signals a readily soluble substance. With `COc1ccc(-c2ccc3cc(C(=O)O)ccc3c2)cc1C12CC3CC(CC(C3)C1)C2`, the Solubility was 0.07 µg/mL (≈ 0.17 µM).
